Earlier results, collected in patent publication US10668029B2, “Compositions containing non-polar compounds” (VIRUN, INC., priority 2008, dated 2020).

Conditions: hydrophilic-lipophilic balance value

Row | Substance | HLB
1 | PEG-2 Hydrogenated Castor Oil | 1.7
2 | PEG-25 Hydrogenated Castor Oil | 10.8
3 | PEG-35 Castor Oil | 12.5
4 | Pluronic F68 | 29
